This passage reports EC50 results from patent US11667602B2, “Compounds and their use” (AstraZeneca AB, priority 2020, dated 2023).

pEC50: −log10 of the molar value.

This test has as its target T1, human RXFP1 (Homo sapiens, UniProt Q9HBX9).
T1 sequence (Q9HBX9 1-757): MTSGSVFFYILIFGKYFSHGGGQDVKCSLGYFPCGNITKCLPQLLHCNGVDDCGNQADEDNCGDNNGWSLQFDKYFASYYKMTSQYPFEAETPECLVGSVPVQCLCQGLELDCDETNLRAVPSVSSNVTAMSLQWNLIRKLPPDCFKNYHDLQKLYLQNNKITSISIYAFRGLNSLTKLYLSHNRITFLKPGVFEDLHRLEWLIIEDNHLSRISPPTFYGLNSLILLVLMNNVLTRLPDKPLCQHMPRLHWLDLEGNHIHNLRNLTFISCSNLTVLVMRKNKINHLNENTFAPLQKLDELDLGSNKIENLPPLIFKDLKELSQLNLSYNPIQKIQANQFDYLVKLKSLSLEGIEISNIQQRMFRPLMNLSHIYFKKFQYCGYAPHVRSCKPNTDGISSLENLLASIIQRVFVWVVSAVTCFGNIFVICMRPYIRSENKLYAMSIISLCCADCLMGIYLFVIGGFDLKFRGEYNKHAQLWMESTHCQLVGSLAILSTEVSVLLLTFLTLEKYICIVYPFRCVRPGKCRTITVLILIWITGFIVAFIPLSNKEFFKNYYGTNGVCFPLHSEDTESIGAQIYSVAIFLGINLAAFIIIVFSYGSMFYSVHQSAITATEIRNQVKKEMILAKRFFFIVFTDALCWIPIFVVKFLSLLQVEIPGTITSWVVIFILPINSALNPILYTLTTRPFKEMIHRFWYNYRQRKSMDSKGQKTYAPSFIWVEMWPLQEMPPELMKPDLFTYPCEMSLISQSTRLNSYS
The test can be described thus: RXFP1 Hu cAMP (Test A). In kind it is cell-based. On the set-up: expressed in transfected cells; host or cells: Jump-In T-REx CHO-K1 cells (ThermoFisher), induced with 10 ng/ml doxycycline for 24 h.
What is called pEC50 is the EC50 on a negative log10 scale, so that one unit is a factor of ten. Regarding “(1R,4s)-4-(2-Fluoro-4-methoxy-5-(((1S*,2S*,3R*,4R*)-3-(((1-methylcyclobutyl)methyl)carbamoyl)-7-oxabicyclo[2.2.1]heptan-2-yl)carbamoyl)phenoxy)-1-methylcyclohexane-1-carboxylic acid [Example 531]”, the pEC50 was less than 4.40.

Compound `COc1cc(F)c(Cc2cn[nH]c2)cc1C(=O)N[C@@H]1[C@H]2CC[C@H](C2)[C@@H]1C(=O)Nc1cccc(S(=O)(=O)C(F)(F)F)c1` [Example 219, (1R,2S,3R,4S)-3-(5-((1H-Pyrazol-4-yl)methyl)-4-fluoro-2-methoxybenzamido)-N-(3-((trifluoromethyl)sulfonyl)phenyl)bicyclo[2.2.1]heptane-2-carboxamide] had a pEC50 of 6.55.

In the case of `COc1cc(C#N)c(O[C@H]2CC[C@@](C)(C(=O)O)CC2)cc1C(=O)N[C@@H]1[C@H]2CC[C@H](C2)[C@@H]1C(=O)NCCCC1CC1` [Example 132], the pEC50 is 6.55.

In turn, “(1R,4s)-4-(2-Fluoro-5-(((1S*,2S*,5S*)-2-hydroxy-5-((3-((trifluoromethyl)sulfonyl)phenyl)carbamoyl)cyclopentyl)carbamoyl)-4-methoxyphenoxy)-1-methylcyclohexane-1-carboxylic acid [Example 529]” had a pEC50 of 6.30.

In the case of “(1R,4s)-4-(2-Fluoro-4-methoxy-5-(((1S*,2S*,3R*,4R*)-3-((3-((trifluoromethyl)sulfonyl)phenyl)carbamoyl)bicyclo[2.2.1]heptan-2-yl)carbamoyl)phenoxy)-1-methylcyclohexane-1-carboxylic acid [Example 587]”, the pEC50 was 5.66.

On to `COC[C@]1(C(=O)O)CC[C@@H](Oc2cc(C(=O)N[C@@H]3[C@H]4CC[C@H](C4)[C@@H]3C(=O)NCC(C)(C)C)c(OC)cc2F)CC1` [Example 481], for which the pEC50 was 6.55.

In turn, “(1R,4s)-4-(2-fluoro-4-methoxy-5-(((1S*,2R*,4R*)-4-methoxy-2-((3-((trifluoromethyl)sulfonyl)phenyl)carbamoyl)cyclopentyl)carbamoyl)phenoxy)-1-methylcyclohexane-1-carboxylic acid [Example 525]” gave a pEC50 of less than 4.40.

In the case of “(1R,4s)-4-(2-Fluoro-4-methoxy-5-(((3S*,4R*)-4-(((1-methylcyclobutyl)methyl)carbamoyl)tetrahydrofuran-3-yl)carbamoyl)phenoxy)-1-methylcyclohexane-1-carboxylic acid [Example 577]”, the pEC50 is less than 4.40.

`COc1cc(F)c(-c2ccc(C(=O)O)cc2)cc1C(=O)N[C@H]1[C@@H](C(=O)Nc2cc(F)cc(C(F)(F)F)c2)[C@@H]2C=C[C@H]1C2` (racemic) [Example 308]: the pEC50 was 5.96.

On to `CC1(CNC(=O)[C@H]2[C@@H]3CC[C@@H](C3)[C@H]2NC(=O)c2cc(O[C@H]3CC[C@@](C)(C(=O)O)CC3)c(F)cc2C#N)CCC1` [Example 377], for which the pEC50 was 4.89.

`COc1cc(F)c(-c2ccc(/C=C/C(=O)O)nc2)cc1C(=O)N[C@@H]1[C@H]2CC[C@H](C2)[C@@H]1C(=O)Nc1cccc(S(=O)(=O)C(F)(F)F)c1` [Example 260, (E)-3-(5-(2-Fluoro-4-methoxy-5-(((1S,2R,3S,4R)-3-((3-((trifluoromethyl)sulfonyl)phenyl)carbamoyl)bicyclo[2.2.1]heptan-2-yl)carbamoyl)phenyl)pyridin-2-yl)acrylic acid] had a negative-log EC50 (pEC50) of 6.55.

Regarding “(1R,4s)-4-(2-fluoro-5-(((1S*,2S*,3R*,4R*)-3-((4-fluoro-3-(pentafluoro-λ6-sulfaneyl)phenyl)carbamoyl)bicyclo[2.2.1]heptan-2-yl)carbamoyl)-4-methoxyphenoxy)-1-methylcyclohexane-1-carboxylic acid [Example 521]”, the pEC50 was 6.15.

`COc1cc(C#N)c(O[C@H]2CC[C@@](C)(C(=O)O)CC2)cc1C(=O)N[C@@H]1[C@H]2CC[C@H](C2)[C@@H]1C(=O)N[C@H](C)C1CCCCC1` [Example 120] showed a pEC50 of 7.35.

As for `COc1cc(F)c(O[C@H]2CC[C@@H](C(=O)O)CC2)cc1C(=O)N[C@@H]1[C@H]2CC[C@H](C2)[C@@H]1C(=O)Nc1cc(C(F)(F)F)cc(C(F)(F)F)c1` [Example 22, (1S,4s)-4-(5-(((1S,2R,3S,4R)-3-((3,5-Bis(trifluoromethyl)phenyl)carbamoyl)bicyclo[2.2.1]heptan-2-yl)carbamoyl)-2-fluoro-4-methoxyphenoxy)cyclohexane-1-carboxylic acid], the pEC50 is 6.54.

Take `COc1cc(F)c(-c2ccc(C(=O)O)c(F)c2)cc1C(=O)N[C@H]1[C@@H](C(=O)Nc2cccc(S(=O)(=O)C(F)(F)F)c2)[C@@H]2C=C[C@H]1C2` (racemic) [Example 232]: the pEC50 was 5.96.

Consider “(1R,4s)-4-(2-Fluoro-4-methoxy-5-(((3S*,4R*)-4-(neopentylcarbamoyl)tetrahydrofuran-3-yl)carbamoyl)phenoxy)-1-methylcyclohexane-1-carboxylic acid [Example 567]”, for which the pEC50 is 5.00.

`COc1cc(C#N)c(O[C@H]2CC[C@@](C)(C(=O)O)CC2)cc1C(=O)N[C@@H]1[C@H]2CC[C@H](C2)[C@@H]1C(=O)NCCCF` [Example 135]: the pEC50 was 5.96.

`COc1cc(F)c(O[C@H]2CC[C@@](CO)(C(=O)O)CC2)cc1C(=O)N[C@H]1[C@@H](C(=O)NCC2(C)CCC2)[C@H]2CC[C@@H]1O2` (racemic) [Example 332]: the pEC50 is 6.54.

As to “(1R,4s)-4-(2-Fluoro-5-(((3S*,4R*)-4-((4-fluoro-3-(pentafluoro-λ6-sulfaneyl)phenyl)carbamoyl)tetrahydrofuran-3-yl)carbamoyl)-4-methoxyphenoxy)-1-methylcyclohexane-1-carboxylic acid [Example 565]”, the pEC50 was 7.64.

As for `COc1cc(F)c(O[C@H]2CC[C@@](C)(C(=O)O)CC2)cc1C(=O)NC1C(C(=O)Nc2cccc(S(=O)(=O)C(F)(F)F)c2)CC2OCOC21` (single isomer, unassigned) [Example 512, (1R,4s)-4-(2-Fluoro-4-methoxy-5-(((3aR*,4S*,5S*,6aS*)-5-((3-((trifluoromethyl)sulfonyl)phenyl)carbamoyl)tetrahydro-4H-cyclopenta[d][1,3]dioxol-4-yl)carbamoyl)phenoxy)-1-methylcyclohexane-1-carboxylic acid], the pEC50 is 7.64.

For “(1R,4s)-4-(2-Cyano-4-methoxy-5-(((1R*,2S*,3R*,4S*)-3-(((1-methylcyclobutyl)methyl)carbamoyl)bicyclo[2.2.2]oct-5-en-2-yl)carbamoyl)phenoxy)-1-methylcyclohexane-1-carboxylic acid [Example 541]”, the pEC50 was 4.74.

In turn, `COc1cc(F)c(O[C@H]2CC[C@@H](C(=O)O)CC2)cc1C(=O)N[C@@H]1[C@H]2CC[C@H](C2)[C@@H]1C(=O)Nc1cccc(OC(F)(F)F)c1F` [Example 18] showed a pEC50 of 5.49.

With `COc1cc(F)c(O[C@H]2CC[C@](C)(CC(=O)O)CC2)cc1C(=O)N[C@@H]1[C@H]2CC[C@H](C2)[C@@H]1C(=O)NCC1(C)CCC1` [Example 477, 2-((1R,4r)-4-(2-Fluoro-4-methoxy-5-(((1S,2R,3S,4R)-3-(((1-methylcyclobutyl)methyl)carbamoyl)bicyclo[2.2.1]heptan-2-yl)carbamoyl)phenoxy)-1-methylcyclohexyl)acetic acid], the pEC50 was 5.96.

Compound `COc1cc(F)c(O[C@H]2CC[C@@H](C(=O)O)CC2)cc1C(=O)N[C@@H]1[C@H]2CC[C@H](C2)[C@@H]1C(=O)Nc1ccc(F)c(OC(F)(F)F)c1` [Example 21] showed a pEC50 of 7.64.

Compound “(1R,4s)-4-(2-Fluoro-5-(((3S*,4S*)-4-((4-fluoro-3-(pentafluoro-λ6-sulfaneyl)phenyl)carbamoyl)tetrahydro-2H-pyran-3-yl)carbamoyl)-4-methoxyphenoxy)-1-methylcyclohexane-1-carboxylic acid [Example 575]” showed a pEC50 of 6.54.

As for “(1R,4s)-4-(2-Fluoro-4-methoxy-5-(((1S*,2R*,4R*)-4-methoxy-2-(neopentylcarbamoyl)cyclopentyl)carbamoyl)phenoxy)-1-methylcyclohexane-1-carboxylic acid [Example 547]”, the pEC50 was 5.77.

“(1R,4s)-4-(2-fluoro-4-methoxy-5-(((1S*,2S*,5S*)-2-methoxy-5-((3-((trifluoromethyl)sulfonyl)phenyl)carbamoyl)cyclopentyl)carbamoyl)phenoxy)-1-methylcyclohexane-1-carboxylic acid [Example 527]” showed a pEC50 of 7.10.

Compound “(1R,4s)-4-(5-(((1S*,2R*,3S*,5S*)-2,3-Dihydroxy-5-((3-((trifluoromethyl)sulfonyl)phenyl)carbamoyl)cyclopentyl)carbamoyl)-2-fluoro-4-methoxyphenoxy)-1-methylcyclohexane-1-carboxylic acid [Example 563]” showed a pEC50 of less than 4.40.
